Experimental data from paper PMC6098021.

Target: Src kinase, endogenous in LLC-PK1 cells and lines derived from PY-17 (pig (endogenous in LLC-PK1))
Assay: co-IP; lysates of AAC-19 (rat α1) and Y260A mutant cells; α1 Na/K-ATPase/Src interaction by immunoprecipitation and immunoblot, bands quantified, n = 3; precipitating antibody not named for this panel

For “rat α1 Na/K-ATPase Y260A mutant (from UniProt P06685 1-1023) (natural protein)”, the percent decrease in binding against wild type (AAC-19) was 60%.
